Target: CXCR4 receptor (human (endogenous in MDA-MB-231)) (UniProt P61073)

By UniProt entry, the sequences of proteins in these tests, tags left out. Residues count along the entry.
UniProt P61073, whole entry: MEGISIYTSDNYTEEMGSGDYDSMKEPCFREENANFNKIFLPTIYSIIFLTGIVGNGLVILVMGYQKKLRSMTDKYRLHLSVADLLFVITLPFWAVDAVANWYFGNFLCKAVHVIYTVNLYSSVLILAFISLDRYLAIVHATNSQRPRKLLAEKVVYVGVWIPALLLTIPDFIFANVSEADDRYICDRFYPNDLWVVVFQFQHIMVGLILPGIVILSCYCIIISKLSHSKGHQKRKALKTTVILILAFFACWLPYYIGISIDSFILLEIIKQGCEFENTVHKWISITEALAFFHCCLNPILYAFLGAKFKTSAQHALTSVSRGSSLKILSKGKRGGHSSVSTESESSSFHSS
UniProt P48061, 22-89: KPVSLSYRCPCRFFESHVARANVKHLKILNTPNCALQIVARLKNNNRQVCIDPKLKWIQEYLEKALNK

wild-type CXCL12 (CXCL12wt) (from UniProt P48061-2 22-89) (natural protein)
cytoplasmic Ca2+ release in MDA-MB-231 cells (Fura-2), EC50 for wild-type CXCL12: 1 nM
